Reference: ChEMBL document CHEMBL3588796, “Potency enhancement of the κ-opioid receptor antagonist probe ML140 through sulfonamide constraint utilizing a tetrahydroisoquinoline motif” (Bioorg Med Chem, 2015)

Amino acid sequences for entries named in this document (tags omitted). A change or cut given only in a name is not applied to a line headed by its entry.
UniProt P41145: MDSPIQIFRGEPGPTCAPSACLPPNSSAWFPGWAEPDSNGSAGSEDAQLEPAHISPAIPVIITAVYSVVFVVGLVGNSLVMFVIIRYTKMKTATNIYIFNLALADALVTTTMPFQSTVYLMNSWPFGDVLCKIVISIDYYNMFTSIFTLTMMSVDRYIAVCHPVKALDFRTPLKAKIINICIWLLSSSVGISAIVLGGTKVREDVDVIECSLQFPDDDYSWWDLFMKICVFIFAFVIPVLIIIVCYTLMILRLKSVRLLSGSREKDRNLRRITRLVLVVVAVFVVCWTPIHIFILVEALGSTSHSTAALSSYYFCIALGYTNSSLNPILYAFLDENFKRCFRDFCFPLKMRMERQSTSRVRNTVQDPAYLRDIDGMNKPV

Target: Kappa-type opioid receptor (Homo sapiens, UniProt P41145)
Assay: Potency index, ratio of IC50 for ML140 to IC50 for test compound against human recombinant kappa opioid receptor

Cc1ccc(S(=O)(=O)N2CCc3cc(C(=O)NCCN(Cc4ccc(Cl)cc4)C(C)(C)C)ccc3C2)cc1
Ratio IC50: 100
